# In ChEMBL document CHEMBL3882391, “Substituted tricyclic compounds as protein kinase inhibitors” (2008):
# Molecular target: T1, Aurora kinase A (Homo sapiens) (UniProt O14965)
# T1 sequence (whole entry): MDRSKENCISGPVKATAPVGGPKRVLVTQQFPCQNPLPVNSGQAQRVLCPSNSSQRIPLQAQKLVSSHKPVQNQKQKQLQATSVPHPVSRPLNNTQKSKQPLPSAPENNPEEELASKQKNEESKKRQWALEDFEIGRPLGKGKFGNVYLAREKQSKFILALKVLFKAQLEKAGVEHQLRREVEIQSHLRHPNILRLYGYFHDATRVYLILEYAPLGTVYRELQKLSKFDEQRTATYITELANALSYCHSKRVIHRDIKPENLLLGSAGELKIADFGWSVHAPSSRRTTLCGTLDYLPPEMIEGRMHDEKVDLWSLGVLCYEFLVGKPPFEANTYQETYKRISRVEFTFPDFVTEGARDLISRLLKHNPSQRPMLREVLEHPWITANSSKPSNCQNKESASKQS
# Experiment: Inhibition of human recombinant aurora-2 kinase expressed in Sf9 cells at 20 uM using kemptide as substrate by kinase-Glo luciferase assay
smiles,measurement,value
COc1cc2[nH]c3ncnc(N4CCN(C(=S)Nc5ccc(S(=O)(=O)Nc6ncccn6)cc5)CC4)c3c2cc1OC,inhibition,Active

# The source made the active and inactive calls. The calls are words filed in the database; no cut-off is given here.
